Reference: PubChem BioAssay AID602329 (Broad Institute, 2012)
This is a selection; strong and weak results do not stand in their true shares. Active and inactive are the calls of the source.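 How the source made its calls: active means mean normalized replicate activity at least 40 and at least half of replicates scoring 40 or more; inconclusive means only one of the two criteria met; inactive means mean below 40 and under half of replicates reaching 40.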

The chains behind the UniProt entries cited, without tags or fusion partners. Where a name states a change or a piece, a line headed by the entry shows the natural chain unless it says otherwise.
UniProt Q92698: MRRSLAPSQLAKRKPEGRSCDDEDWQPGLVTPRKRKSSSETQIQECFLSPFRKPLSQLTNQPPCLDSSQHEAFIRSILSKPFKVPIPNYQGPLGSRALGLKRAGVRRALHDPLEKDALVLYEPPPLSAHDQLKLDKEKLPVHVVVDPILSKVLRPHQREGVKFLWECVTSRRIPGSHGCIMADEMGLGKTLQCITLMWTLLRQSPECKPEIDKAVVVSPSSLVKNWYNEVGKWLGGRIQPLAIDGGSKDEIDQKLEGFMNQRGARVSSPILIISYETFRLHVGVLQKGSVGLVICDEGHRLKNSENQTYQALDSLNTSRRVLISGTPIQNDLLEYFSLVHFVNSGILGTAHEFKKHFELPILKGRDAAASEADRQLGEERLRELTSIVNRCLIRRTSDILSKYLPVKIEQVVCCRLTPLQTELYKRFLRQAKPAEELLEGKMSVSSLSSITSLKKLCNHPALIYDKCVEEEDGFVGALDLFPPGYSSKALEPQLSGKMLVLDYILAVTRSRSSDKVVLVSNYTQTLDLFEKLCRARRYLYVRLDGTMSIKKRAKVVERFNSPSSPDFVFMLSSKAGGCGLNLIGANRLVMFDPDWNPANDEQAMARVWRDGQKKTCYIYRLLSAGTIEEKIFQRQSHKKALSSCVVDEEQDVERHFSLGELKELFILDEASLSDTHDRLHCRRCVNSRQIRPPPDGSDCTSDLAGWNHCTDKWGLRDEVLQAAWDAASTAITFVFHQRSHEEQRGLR

molecular target: DNA repair and recombination protein RAD54-like (Homo sapiens) (UniProt Q92698); assay: RAD54 Holliday junction migration blockers – biochemical, fluorescence, single point, primary screen (AID 602329); settings: RAD54 Holliday junction branch migration, FAM/BHQ fluorescence; at 10.4 µM; hits give high values;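 further: 0% = median of neutral control wells and 100% = median of positive control wells; inhibitors cause a drop in the FAM fluorescence signal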

SMILES | inhibition
O=[N+]([O-])c1ccc2c(c1)nnn2O | inactive: -3.34%
CN(C(=O)Cc1ccc(Cl)c(Cl)c1)[C@H]1CC[C@@]2(CCCO2)C[C@@H]1N1CCCC1 | inactive: 5.74%
NC(=O)Nc1ccc([As](=O)(O)O)cc1 | inactive: -11.4%
O=P1(N(CCCl)CCCl)OCCC2CCCCN21 (stereo unspecified) | inactive: -14.6%
Cc1ccc(NP(=O)(Oc2cccc(C)c2)Oc2cccc(C)c2)nc1 | inactive: -0.211%
CCNC(=S)/N=C(\N)N[N+](=O)[O-] | inactive: -1.93%
CC(NC(=O)COC(=O)C(O)(c1ccccc1)c1ccccc1)c1ccccc1 (stereo unspecified) | inactive: -0.79%
CN(C)C(=O)Oc1noc2ccccc12 | inactive: -1.52%
O=C(OC1CN2CCC1CC2)c1ccccc1 (stereo unspecified) | inactive: -1.18%
CCC(=O)N1C2C3N(C(=O)CC)C1C1N(C(=O)CC)C(C(N1C(=O)CC)N3C(=O)CC)N2C(=O)CC | inactive: 2.19%
COC(=O)c1cc2c(s1)N=C(c1ccccc1)N(C)P2(=O)N1CCOCC1 (stereo unspecified) | inactive: 2.69%
CC(=O)NC(SC(=S)N(CC(C)C)CC(C)C)C(Cl)(Cl)Cl (stereo unspecified) | inactive: -7.77%
CCc1cc(O)c([N+](=O)[O-])c(C)c1[N+](=O)[O-] | inactive: 6.23%
O=P1(Nc2nc3ccc(Cl)cc3s2)COc2ccccc2O1 (stereo unspecified) | inactive: -10.1%
CC(=O)Nc1ccc([As](=O)(O)O)c(O)c1 | inactive: 3.16%
CC(=O)Nc1ccc(Oc2c([N+](=O)[O-])cc([N+](=O)[O-])cc2[N+](=O)[O-])cc1 | inactive: -1.05%
Cc1ccccc1CN(C)C(=O)COC(=O)C(O)(c1ccccc1)c1ccccc1 | inactive: -11.6%
C[C@@H]1C=CCP(=O)(Oc2ccccc2)O1 (stereo partly specified) | inactive: -2.21%
C[C@H]1OP(=O)(Oc2ccccc2)C[C@@H]2O[C@@H]21 (stereo partly specified) | inactive: 1.41%
CC(=O)c1ccc(N2CC2c2ccncc2)cc1 (stereo unspecified) | inactive: -12.5%
c1nnnn1CCn1cnnn1 | inactive: -3.18%

SMILES | inhibition
O=P(Nc1nccs1)(c1ccccc1)c1ccccc1 | inactive: -0.14%
O=P(Nc1nc2ccccc2s1)(c1ccccc1)c1ccccc1 | inactive: -4%
C[C@H]1OP(=O)(Oc2ccccc2)[C@H](O)[C@H](O)[C@H]1N=[N+]=[N-] (stereo partly specified) | inactive: 13.3%
CN(C)C1(CNC(=O)c2ccc(Cl)c(S(N)(=O)=O)c2)CCCCC1 | inactive: -11.6%
O=P(Nc1ccccn1)(c1ccc(Br)cc1)c1ccc(Br)cc1 | inactive: -8.79%
Nc1ccc(CCCCOc2ccccc2)cc1 | inactive: 0.615%
COc1ccc(N)c([N+](=O)[O-])c1[N+](=O)[O-] | inactive: -2.53%
O=C(OC1CN2CCC1CC2)c1cccc(Cl)c1 (stereo unspecified) | inactive: -9.85%
Nc1ccc([As](=O)(O)c2ccc([N+](=O)[O-])cc2)cc1 | inactive: 0.237%
O=[As](O)(c1ccccc1)c1ccc(O)cc1 | inactive: 1.08%
CC(=O)NC(SC(=S)N(C)C)C(Cl)(Cl)Cl (stereo unspecified) | inactive: -4.55%
O=[N+]([O-])c1ccc(O)c(/C=N/Nc2ccc([N+](=O)[O-])cc2[N+](=O)[O-])c1 | inactive: -12.8%
O=C(Nc1cc([As](=O)(O)O)ccc1O)c1ccccc1 | inactive: 0.322%
O=P1(N(CCCl)CCCl)OCCCS1 (stereo unspecified) | inactive: -6.59%
O=C(O)CNc1ccc([As](=O)(O)O)cc1 | inactive: -1.43%
O=[N+]([O-])c1cccc(NC2=NCC(CBr)S2)c1 (stereo unspecified) | inactive: -8.78%
CCc1nc2c(n1)c1c(non1O)c1c2no[n+]1[O-] | inactive: 9.14%
CC(=O)N1C2C3N(C(C)=O)C1C1N(C(C)=O)C(C(N1C(C)=O)N3C(C)=O)N2C(C)=O | inactive: 2.22%
O=[N+]([O-])c1cccc2n[nH]nc12 | inactive: -0.643%
COc1ccc(C2=NCC(CBr)S2)cc1 (stereo unspecified) | inactive: -1.66%
c1cc(-c2nn[nH]n2)ccc1-c1nn[nH]n1 | inactive: 1.72%

SMILES | inhibition
CC1CCN(C(=O)Oc2c(Cl)cc(Cl)c3cccnc23)CC1 | inactive: -6.52%
CC(C)c1nc(Nc2ccccc2)n(P(=O)(N(C)C)N(C)C)n1 | inactive: -5.79%
Nc1ccc([As](=O)(O)c2ccc(N)cc2)cc1 | inactive: 3.17%
C[N+]1=C2C=CC=CC=C2SC12C([N+](=O)[O-])=CC([N+](=O)[O-])=C[C-]2[N+](=O)[O-] (stereo unspecified) | inactive: -2.72%
Clc1ccc(Cl)c(NC2=NCC(CBr)S2)c1 (stereo unspecified) | inactive: 10.6%
CN1CCCC(OC(=O)C(c2ccccc2)c2ccccc2)C1 (stereo unspecified) | inactive: -18.9%
Cc1ccc(OP(=O)(Nc2nccs2)Oc2ccc(C)cc2)cc1 | inactive: -0.988%
CN(C(=O)Cc1ccc(Cl)c(Cl)c1)[C@H]1CCCC[C@H]1N1CCCC1 | inactive: -11.6%
Cc1ccc(N/C(=N/P(=O)(N2CCOCC2)N2CCOCC2)N2CCOCC2)cc1 | inactive: 14.4%
Oc1ccccc1CNc1ccccn1 | inactive: 8.98%
O=C(NC(Sc1ccncn1)C(Cl)(Cl)Cl)c1ccccc1 (stereo unspecified) | inactive: 1.82%
CC(C)CC(=O)NC(Sc1ccc(Cl)cc1)C(Cl)(Cl)Cl (stereo unspecified) | inactive: -11.1%
CCOP(=O)(Nc1ccccc1)OCC | inactive: -9.28%
CN(C(=O)Cc1ccc(Cl)c(Cl)c1)[C@H]1CCCC[C@@H]1N1CCCC1 | inactive: -6.28%
CN(C)P(=O)(N(C)C)n1c(Nc2ccccc2)nnc1-c1ccccc1 | inactive: -5.96%
O=C(O)c1ccccc1[As](=O)(O)O | inactive: -0.552%
CC(=O)Nc1ccc([As](=O)(O)O)cc1 | inactive: 1.52%
CCCC1OP(N)(=O)OCC1CC (stereo unspecified) | inactive: 6.98%
Nc1cccc2ccc([As](=O)(O)O)cc12 | inactive: -4.41%
